This is an account of results in PMC5681660, “Reduced hepatitis B and D viral entry using clinically applied drugs as novel inhibitors of the bile acid transporter NTCP” (Scientific Reports, 2017).

Molecules are shown by their SMILES. Structures can show the parent of a compound that is named as a salt.

The first assay addresses T1, human NTCP (Homo sapiens, UniProt Q14973).
T1 sequence (Q14973 1-349): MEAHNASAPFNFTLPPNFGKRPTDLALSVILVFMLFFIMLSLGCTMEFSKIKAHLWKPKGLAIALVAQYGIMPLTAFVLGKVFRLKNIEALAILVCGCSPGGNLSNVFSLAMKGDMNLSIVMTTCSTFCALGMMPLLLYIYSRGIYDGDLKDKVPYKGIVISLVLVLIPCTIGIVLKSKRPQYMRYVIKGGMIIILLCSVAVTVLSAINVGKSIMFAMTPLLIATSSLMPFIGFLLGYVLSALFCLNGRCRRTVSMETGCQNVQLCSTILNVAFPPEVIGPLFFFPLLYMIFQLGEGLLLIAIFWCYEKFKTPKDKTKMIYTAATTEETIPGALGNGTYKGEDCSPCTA
As to the kind of experiment: Screening fluorescent competitive Myrcludex B-FITC binding assay (96-well, 10 µM drug). The conditions noted are these: 0.5 h, read-out: %NTCP binding, screening Myrcludex B-FITC binding, 10 µM drug, Prestwick library.
For `C=CC[C@]1(O)CC[C@H]2[C@@H]3CCC4=CC(=O)CCC4=C3C=C[C@@]21C` [Altrenogest], the remaining activity at 10 µM was 84.6%.

In the case of `Cn1c(=O)c2[nH]cnc2n(C)c1=O` [Aminophylline], the remaining activity at 10 µM was 108%.

For `OC(c1ccccc1)(c1ccccc1)C1CCNCC1` [Azacyclonol], the remaining activity at 10 µM worked out at 92.3%.

The assay is the same for the next values; noted with them: screening Myrcludex B-FITC binding, 10 µM drug.
On to `CC(C)NCC(O)c1cc(O)cc(O)c1.CC(C)NCC(O)c1cc(O)cc(O)c1.O=S(=O)(O)O` (stereo not shown), for which the B-score binding assay is listed as -0.643.

`Cl.Cl.c1ccc2c(c1)CCCc1cc(NCCN3CCOCC3)nnc1-2`: the B-score binding assay is recorded as -3.003.

`CC=CC(=O)N(CC)c1ccccc1C` (mixture of isomers) [Crotamiton] registered a B-score binding assay of -2.125.

As for `C#C[C@]1(OC(C)=O)CC[C@H]2[C@@H]3CCC4=CC(=NO)CC[C@@H]4[C@H]3CC[C@@]21CC` (mixture of isomers) [Norgestimate], the B-score binding assay is on record as -2.146.

In the case of `CNCC(O)c1ccc(O)cc1` (racemic) [(+,-)-Synephrine], the B-score binding assay is reported as -0.067.

`CN(Cc1cnc2nc(N)nc(N)c2n1)c1ccc(C(=O)N[C@@H](CCC(=O)O)C(=O)O)cc1` (racemic) [Amethopterin (R,S)]: the B-score binding assay stood at 1.483.

Compound `Nc1c2c(nc3ccccc13)CCCC2O.O=C(O)/C=C\C(=O)O` (racemic) [Hydroxytacrine maleate (R,S)] came in with a B-score binding assay of -4.051.

`CC(=O)NC1CCSC1=O` (racemic) [N-Acetyl-DL-homocysteine Thiolactone]: the B-score binding assay is on record as -0.337.

For the compound `Nc1ccccc1S(N)(=O)=O` [2-Aminobenzenesulfonamide], the B-score binding assay came out at 1.416.

As to `CC(C)(C)NC[C@@H](O)COc1cccc2c1CCCC2=O.Cl` [(+) -Levobunolol hydrochloride], the B-score binding assay was found to be 0.328.

In turn, `CC(C)NC[C@H](O)COc1cccc2ccccc12` [(S)-propranolol hydrochloride] had a B-score binding assay of 0.068.

As for `CC(=O)NCCCS(=O)(=O)O` [Acamprosate calcium], the B-score binding assay is on record as -3.028.

With `CC(=O)OC1CN2CCC1CC2` (stereo not shown) [Aceclidine Hydrochloride], the B-score binding assay was -1.034.

`CC(=O)N[C@@H](CS)C(=O)O` [Acetylcysteine]: the B-score binding assay is recorded as 1.995.

`COc1ccc(-c2ccc3cc(C(=O)O)ccc3c2)cc1C12CC3CC(CC(C3)C1)C2` [Adapalene] gave a B-score binding assay of -0.233.

Compound `CCC(=O)OCC(=O)[C@@]1(OC(=O)CC)[C@H](C)C[C@H]2[C@H]3[C@H]([C@@H](O)C[C@@]21C)[C@@]1(C)C=CC(=O)C=C1C[C@H]3Cl` [Alclometasone dipropionate] came in with a B-score binding assay of -0.89.

Take `CCCCC(CC)CNC(=N)NC(=N)NCCCCCCNC(=N)NC(=N)NCC(CC)CCCC` (stereo not shown) [Alexidine dihydrochloride]: the B-score binding assay was -6.549.

For the compound `C=C1/C(=C\C=C2/CCC[C@]3(C)[C@@H]([C@H](C)CCCC(C)C)CC[C@@H]23)C[C@@H](O)C[C@@H]1O` [Alfacalcidol], the B-score binding assay is given as 0.028.

As for `COc1cc2nc(N(C)CCCNC(=O)C3CCCO3)nc(N)c2cc1OC` (stereo not shown) [Alfuzosin hydrochloride], the B-score binding assay turned out to be 0.046.

The compound `CC(=O)[C@@]12O[C@](C)(c3ccccc3)O[C@@H]1C[C@H]1[C@@H]3CCC4=CC(=O)CC[C@]4(C)[C@H]3CC[C@@]12C` [Algestone acetophenide] registered a B-score binding assay of -0.867.

On to `C=CCN1CCCC1CNC(=O)c1cc2[nH]nnc2cc1OC.Cl` (stereo not shown) [Alizapride HCl], for which the B-score binding assay was -0.631.

Regarding `NC(=O)NC1NC(=O)NC1=O` (stereo not shown) [Allantoin], the B-score binding assay is reported as -1.26.

For `Cc1[nH]cnc1CN1CCc2c(c3ccccc3n2C)C1=O` [Alosetron hydrochloride], the B-score binding assay was -0.152.

In turn, `C=CC[C@]1(O)CC[C@H]2[C@@H]3CCC4=CC(=O)CCC4=C3C=C[C@@]21C` [Altrenogest] had a B-score binding assay of -0.328.

In turn, `CN(C)c1nc(N(C)C)nc(N(C)C)n1` [Altretamine] gave a B-score binding assay of 0.599.

Consider `COC(c1ccccc1)(c1ccccc1)[C@H](Oc1nc(C)cc(C)n1)C(=O)O` [Ambrisentan], for which the B-score binding assay came to 0.65.

As to `CC(=O)OCC(=O)[C@@]12OC3(CCCC3)O[C@@H]1C[C@H]1[C@@H]3CCC4=CC(=O)C=C[C@]4(C)[C@@]3(F)[C@@H](O)C[C@@]12C` [Amcinonide], the B-score binding assay was -0.672.

`Nc1c2ccccc2nc2ccccc12` [Aminacrine] returned a B-score binding assay of 0.016.

`Cn1c(=O)c2[nH]cnc2n(C)c1=O` [Aminophylline] yielded a B-score binding assay of 0.068.

`CCC(C)(C)c1ccc(CC(C)CN2C[C@@H](C)O[C@@H](C)C2)cc1` (stereo partly shown) [Amorolfine hydrochloride]: the B-score binding assay came to 0.823.

For `Clc1ccc2c(c1)C(N1CCNCC1)=Nc1ccccc1O2` [Amoxapine], the B-score binding assay is -0.467.

In the case of `CC1(C)S[C@@H]2[C@H](NC(=O)[C@H](N)c3ccc(O)cc3)C(=O)N2[C@H]1C(=O)O` [Amoxicillin], the B-score binding assay was -1.605.

The compound `C[C@@H]1[C@H](O)[C@@H](C)/C=C/C=C/C=C/C=C/C=C/C=C/C=C/[C@H](O[C@@H]2O[C@H](C)[C@@H](O)[C@H](N)[C@@H]2O)C[C@@H]2O[C@](O)(C[C@@H](O)C[C@@H](O)[C@H](O)CC[C@@H](O)C[C@@H](O)CC(=O)O[C@H]1C)C[C@H](O)[C@H]2C(=O)O` [Amphotericin B] showed a B-score binding assay of -0.794.

Regarding `CC1(C)S[C@@H]2[C@H](NC(=O)[C@H](N)c3ccccc3)C(=O)N2[C@H]1C(=O)O` [Ampicillin trihydrate], the B-score binding assay was -1.914.

On to `CCOC(=O)OC(C)OC1=C(C(=O)Nc2ccccn2)N(C)S(=O)(=O)c2ccccc21` (stereo not shown) [Ampiroxicam], for which the B-score binding assay is reported as -0.573.

Take `CCCc1ncc(C[n+]2ccccc2C)c(N)n1` [Amprolium hydrochloride]: the B-score binding assay is -1.746.

`CC(C)(C#N)c1cc(Cn2cncn2)cc(C(C)(C)C#N)c1` [Anastrozole] registered a B-score binding assay of -0.691.

In turn, `O=C1c2c(O)cccc2Cc2cccc(O)c21` [Anthralin] yielded a B-score binding assay of -8.884.

Turning to `CCCCCC[C@H]1C(=O)O[C@H](C)[C@H](NC(=O)c2cccc(NC=O)c2O)C(=O)O[C@@H](C)[C@@H]1OC(=O)CC(C)C` [Antimycin A], the B-score binding assay was -3.375.

As to `Cc1c(O)c(=O)n(-c2ccccc2)n1C` [Antipyrine, 4-hydroxy], the B-score binding assay was -0.283.

The compound `Cc1cc(=O)n(-c2ccccc2)n1C` [Antipyrine] displayed a B-score binding assay of -1.108.

`C[C@@H](O[C@H]1OCCN(Cc2n[nH]c(=O)[nH]2)[C@H]1c1ccc(F)cc1)c1cc(C(F)(F)F)cc(C(F)(F)F)c1` [Aprepitant] yielded a B-score binding assay of -0.884.

Compound `O=C1CCc2ccc(OCCCCN3CCN(c4cccc(Cl)c4Cl)CC3)cc2N1` [Aripiprazole] showed a B-score binding assay of -0.69.

As to `CN1CC2c3ccccc3Oc3ccc(Cl)cc3C2C1` (stereo not shown) [Asenapine maleate], the B-score binding assay is given as -3.064.

For `COc1ccc(CCN2CCC(Nc3nc4ccccc4n3Cc3ccc(F)cc3)CC2)cc1` [Astemizole], the B-score binding assay is -2.201.

With `CC(C)c1c(C(=O)Nc2ccccc2)c(-c2ccccc2)c(-c2ccc(F)cc2)n1CC[C@@H](O)C[C@@H](O)CC(=O)O` [Atorvastatin], the B-score binding assay is -0.008.

In turn, `CC[C@H](C)[C@H]1O[C@]2(C=C[C@@H]1C)C[C@@H]1C[C@@H](C/C=C(\C)[C@@H](O[C@H]3C[C@H](OC)[C@@H](O[C@H]4C[C@H](OC)[C@@H](O)[C@H](C)O4)[C@H](C)O3)[C@@H](C)/C=C/C=C3\CO[C@@H]4[C@H](O)C(C)=C[C@@H](C(=O)O1)[C@]34O)O2` [Avermectin B1a] showed a B-score binding assay of -6.584.

For the compound `COc1ccc(C(=O)CC(=O)c2ccc(C(C)(C)C)cc2)cc1` [Avobenzone], the B-score binding assay is -1.454.

`OC(c1ccccc1)(c1ccccc1)C1CCNCC1` [Azacyclonol] displayed a B-score binding assay of -0.253.

Take `CC1(C)S[C@@H]2[C@H](NC(=O)[C@H](NC(=O)N3CCNC3=O)c3ccccc3)C(=O)N2[C@H]1C(=O)O` [Azlocillin sodium salt]: the B-score binding assay is on record as -3.095.

Compound `CCOC(=O)OC(C)OC(=O)[C@@H]1N2C(=O)[C@@H](NC(=O)[C@H](N)c3ccccc3)[C@H]2SC1(C)C` (stereo partly shown) [Bacampicillin hydrochloride] came in with a B-score binding assay of 0.086.

Compound `CN(C)C(=O)Oc1cc(OC(=O)N(C)C)cc(C(O)CNC(C)(C)C)c1.Cl` (stereo not shown) [Bambuterol hydrochloride] came in with a B-score binding assay of -0.174.

The assay is the same for the next values; noted with them: screening Myrcludex B-FITC binding, 10 µM drug, Prestwick library.
Take `CC(C)NCC(O)c1cc(O)cc(O)c1.CC(C)NCC(O)c1cc(O)cc(O)c1.O=S(=O)(O)O` (stereo not shown): the “%NTCP binding” value was found to be 73.0014%.

For `CNCC(O)c1ccc(O)cc1` (racemic) [(+,-)-Synephrine], the “%NTCP binding” value was 77.9292%.

For the compound `CN(Cc1cnc2nc(N)nc(N)c2n1)c1ccc(C(=O)N[C@@H](CCC(=O)O)C(=O)O)cc1` (racemic) [Amethopterin (R,S)], the “%NTCP binding” value is recorded as 75.5223%.

In the case of `CC(=O)NC1CCSC1=O` (racemic) [N-Acetyl-DL-homocysteine Thiolactone], the “%NTCP binding” value is given as 70.3255%.

On to `O=C1c2cccc(O)c2C(=O)c2c(O)cccc21` [1,8-Dihydroxyanthraquinone], for which the “%NTCP binding” value is reported as 99.5447%.

Turning to `CC(C)(C)NC[C@@H](O)COc1cccc2c1CCCC2=O.Cl` [(+) -Levobunolol hydrochloride], the “%NTCP binding” value was 93.69%.

As to `C=CCN1CCCC1CNC(=O)c1cc2[nH]nnc2cc1OC.Cl` (stereo not shown) [Alizapride HCl], the “%NTCP binding” value is recorded as 68.82%.

In the case of `CN(C)C(=O)Oc1cc(OC(=O)N(C)C)cc(C(O)CNC(C)(C)C)c1.Cl` (stereo not shown) [Bambuterol hydrochloride], the “%NTCP binding” value came to 58.7751%.

The assay is the same for the next values; noted with them: screening Myrcludex B-FITC binding, 10 µM drug; B-score.
As to `O=C1c2cccc(O)c2C(=O)c2c(O)cccc21` [1,8-Dihydroxyanthraquinone], the B-score binding assay worked out at 2.635.

As for `Nc1nc(NC2CC2)c2ncn([C@H]3C=C[C@@H](CO)C3)c2n1` [Abacavir Sulfate], the B-score binding assay was found to be 1.567.

In the case of `CC(=O)Oc1ccccc1C(=O)O` [Acetylsalicylic acid], the B-score binding assay turned out to be 1.435.

With `C=CCc1ccccc1OCC(O)CNC(C)C` (stereo not shown) [Alprenolol hydrochloride], the B-score binding assay was determined as 1.351.
